Measurements taken from ChEMBL document CHEMBL6153125, “Harnessing the Magic Methyl Effect: Discovery of CLPP-2068 as a Novel HsClpP Activator for the Treatment of Diffuse Large B-Cell Lymphoma” (J Med Chem, 2025).

Key:
Assay type in all cases: functional, cell-based
OCI-Ly10 [1] = assay: Induction of apoptosis in human OCI-Ly10 cells assessed as apoptotic cells at 250 nM measured after 36 hrs incubation by PI and Annexin V-FITC analysis
OCI-Ly10 [2] = assay: Induction of apoptosis in human OCI-Ly10 cells assessed as apoptotic cells at 62.5 nM measured after 36 hrs incubation by PI and Annexin V-FITC analysis
OCI-Ly10 [3] = assay: Induction of apoptosis in human OCI-Ly10 cells assessed as apoptotic cells at 125 nM measured after 36 hrs incubation by PI and Annexin V-FITC analysis
OCI-Ly10 [4] = assay: Induction of mitochondrial ROS production in human OCI-Ly10 cells at 6.25 to 250 nM measured after 39 hrs incubation by MitoSOX Red assay; settings: dose 6.25-250 nM

Measured: Activity

O=C1C2=C(CCN(Cc3ccccc3)C2)N2CCN=C2N1Cc1ccc(C(F)(F)F)cc1
active: OCI-Ly10 [1] | OCI-Ly10 [2] | OCI-Ly10 [3] | OCI-Ly10 [4] Dose-dependent-effect

The source made the active and inactive calls.
